Screening data as filed in PubChem.
Yeast UUG start: alters start codon recognition fidelity in yeast; AID 602363; activity score, % at 18.7 µM; 350,000 tested, 0.13% active; S. cerevisiae UUG-firefly luciferase reporter, luminescence/redox ratio;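 active means replicate mean at a twofold rise or more, about +100% in these data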;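 further: firefly luciferase made from a UUG start codon reports start codon fidelity; reporter light over untreated wells divided by growth signal over untreated wells; some hits fall short of that in this replicate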
MLLE-PAM2 inh: blocks PAM2 peptide binding to the PABP1 MLLE domain; P11940; GST-MLLE / FITC-PAM2 fluorescence polarization; inhibition, % at 20 µM; hit rate 0.36% among 360,000; AID 588489; in the data active = inhibition above about 35%, passing the limit was not always enough
PABP FP inh: blocks human PABP binding to poly(A) RNA; P11940; calls only at 35 µM; hit rate 1% among 290,000; fluorescence polarization;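 also: calls also rest on retests at 20 µM and on dose response follow-up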
eIF4H inh: inhibitors of RNA binding by human eIF4H | Q15056 | eIF4H fluorescence polarization binding assay | inhibition, % at 35 µM | hit rate 0.94% among 290,000;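 also: calls also rest on retests at 20 µM and on dose response follow-up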
DSG3 Ab inh: inhibitors of pemphigus antibody binding to human desmoglein-3; AID 588358; P32926; hit rate 0.48% among 310,000; DSG3-coupled beads, scFv-anti-DSG3-GFP binding, flow cytometry; active compounds read low; binding (percent of control), % at 10 µM;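 active = binding more than 3 SD below its plate's average and above zero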;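 also: hits lower antibody fragment binding to DSG3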
A number is an active result. Sampled rows, rich in hits. Any-hit rate of the full collection: about 1.5%. Unless noted, no rule for the calls is given here.

C[C@@H]1CN([C@@H](C)CO)C(=O)Cc2cc(N(C)C)ccc2O[C@H]1CN(C)Cc1ccc(Cl)c(Cl)c1 was read as Yeast UUG start inactive.
Screening Cc1cccc(OCC(=O)NC(=S)Nc2ccc(S(=O)(=O)NC3CCCCC3)cc2)c1 returned Yeast UUG start inactive, MLLE-PAM2 inh inactive, PABP FP inh inactive, eIF4H inh inactive and DSG3 Ab inh 63.
CC(C)NS(=O)(=O)c1ccc(NC(=S)NC(=O)c2cccc([N+](=O)[O-])c2)cc1 was read as Yeast UUG start inactive, MLLE-PAM2 inh 48, PABP FP inh inactive, eIF4H inh inactive and DSG3 Ab inh inactive.
For Cc1ccc(NC(=O)CCC(=O)c2ccccc2)cc1 the results were Yeast UUG start inactive, MLLE-PAM2 inh inactive and DSG3 Ab inh 71.
Cc1ccc(S(=O)(=O)Nc2ccc3c(c2)C(=O)N([C@H](C)CO)C[C@@H](C)[C@@H](CN(C)Cc2ccc(C(F)(F)F)cc2)OCCCC[C@H](C)O3)cc1 was read as Yeast UUG start inactive.
`CC(C)Oc1ccc(CN=C(N)N=C(N)N)cc1Cl` gave MLLE-PAM2 inh inactive, PABP FP inh active, eIF4H inh active and DSG3 Ab inh inactive.
For COc1ccc(CN=C(N)N=C(N)N)cc1Cl the results were Yeast UUG start inactive, MLLE-PAM2 inh inactive, PABP FP inh inactive, eIF4H inh inactive and DSG3 Ab inh inactive.
CCOC(=O)c1[nH]c2ccccc2c1CCCN1C(=O)c2ccccc2C1=O was read as Yeast UUG start inactive, MLLE-PAM2 inh inactive, PABP FP inh inactive and eIF4H inh inactive.
CCOC(=O)c1[nH]c2cc3c(cc2c1CCCN1C(=O)c2ccccc2C1=O)OCCO3 was read as Yeast UUG start inactive, MLLE-PAM2 inh inactive, PABP FP inh inactive, eIF4H inh inactive and DSG3 Ab inh -29.
`CO[C@H]1CN(C)C(=O)c2ccc(NC(=O)C3CCCCC3)cc2OC[C@@H](C)N(Cc2nccs2)C[C@H]1C` gave Yeast UUG start inactive.
For O=C(C[C@H]1CC[C@H](NC(=O)Nc2cc(F)ccc2F)[C@H](CO)O1)NCCCN1CCOCC1 the results were Yeast UUG start inactive.
Screening Cc1ccnc(N2C(=O)c3cccc4c([N+](=O)[O-])ccc(c34)C2=O)c1 returned Yeast UUG start inactive, MLLE-PAM2 inh 63, PABP FP inh active, eIF4H inh 77 and DSG3 Ab inh inactive.
COc1ccc2c(c1)c(=O)oc1cc(OCC(=O)NC3CCCCC3)ccc12 was read as Yeast UUG start inactive, MLLE-PAM2 inh inactive, PABP FP inh inactive and eIF4H inh 91.
For Cc1sc2c3ccsc3ccc2[n+]1C the results were MLLE-PAM2 inh inactive, PABP FP inh inactive, eIF4H inh inactive and DSG3 Ab inh inactive.
For Cc1sc2ccc3sccc3c2[n+]1C the results were Yeast UUG start inactive, MLLE-PAM2 inh inactive, PABP FP inh active, eIF4H inh inactive and DSG3 Ab inh inactive.
For CO[C@H]1CN(C)C(=O)c2ccc(NC(=O)C3CCCC3)cc2OC[C@@H](C)N(C(C)=O)C[C@H]1C the results were Yeast UUG start inactive.
For CCCCN(C(=O)c1cccc(S(=O)(=O)N2CCOCC2)c1)c1c(N)n(CCC)c(=O)[nH]c1=O the results were MLLE-PAM2 inh inactive, PABP FP inh active, eIF4H inh inactive and DSG3 Ab inh inactive.
For CCCCN(C(=O)c1cccc(S(=O)(=O)N2CCN(C)CC2)c1)c1c(N)n(CCCC)c(=O)[nH]c1=O the results were MLLE-PAM2 inh inactive and DSG3 Ab inh inactive.
Cc1ccc(S(=O)(=O)N(C)C[C@@H]2Oc3ccc(NC(=O)C4CC4)cc3C(=O)N([C@@H](C)CO)C[C@H]2C)cc1 was read as Yeast UUG start inactive.
COc1ccccc1-c1cn(CC[C@@H]2CC[C@H](NS(=O)(=O)c3ccccc3C)[C@@H](CO)O2)nn1 was read as Yeast UUG start inactive.
`CC(NC(=O)CSc1nnc(-c2cc3cc(Cl)ccc3o2)n1C)c1ccccc1` (configuration not stated) gave Yeast UUG start inactive, MLLE-PAM2 inh inactive, PABP FP inh inactive, eIF4H inh inactive and DSG3 Ab inh inactive.
Cn1c(SCC(=O)NC2CCCCC2)nnc1-c1cc2cc(Cl)ccc2o1 was read as Yeast UUG start inactive, MLLE-PAM2 inh inactive, PABP FP inh inactive, eIF4H inh inactive and DSG3 Ab inh 64.
Screening CCOc1cc(-c2cc(-c3ccc(C)cc3)nc(N)c2C#N)ccc1O returned Yeast UUG start inactive, MLLE-PAM2 inh inactive, PABP FP inh active, eIF4H inh 58 and DSG3 Ab inh inactive.
Screening COc1cc(-c2cc(-c3ccc(O)cc3)nc(N)c2C#N)ccc1O returned MLLE-PAM2 inh inactive, PABP FP inh inactive, eIF4H inh inactive and DSG3 Ab inh inactive.
Screening CNC(=O)c1c(N)sc2c1CCCCC2 returned PABP FP inh active and eIF4H inh 124.
`Cc1cc2cc(CNC(=O)c3ccc(S(=O)(=O)N4CCCC4)cc3)ccc2n1C` gave Yeast UUG start inactive, MLLE-PAM2 inh inactive, PABP FP inh inactive, eIF4H inh inactive and DSG3 Ab inh inactive.
`Cc1cc2cc(CNC(=O)c3ccc(S(=O)(=O)N4CCCCC4)cc3)ccc2n1C` gave Yeast UUG start inactive, MLLE-PAM2 inh 49, PABP FP inh inactive, eIF4H inh inactive and DSG3 Ab inh inactive.
Screening CCN(CC)S(=O)(=O)c1ccc(C(=O)NCc2ccc3c(c2)cc(C)n3C)cc1 returned Yeast UUG start inactive, MLLE-PAM2 inh 46, PABP FP inh inactive, eIF4H inh inactive and DSG3 Ab inh inactive.
Screening CN(C)C(=O)c1ccc(-c2ccc([C@@H]3[C@H](CO)N4CCCCN(Cc5ccncc5)C[C@@H]34)cc2)cc1 returned Yeast UUG start inactive.
Screening O=C(C[C@H]1C[C@@H]2c3cc(NC(=O)Nc4ccc(C(F)(F)F)cc4)ccc3O[C@@H]2[C@H](CO)O1)NCc1ccccn1 returned Yeast UUG start inactive.
O=[N+]([O-])c1ccc(CSc2ccc(-c3ccccn3)nn2)cc1 was read as MLLE-PAM2 inh inactive, PABP FP inh inactive, eIF4H inh inactive and DSG3 Ab inh 83.
Screening OC[C@H]1[C@H](c2ccc(C#Cc3ccccc3)cc2)[C@@H]2CN(Cc3cncnc3)CCCCN12 returned Yeast UUG start inactive.
Screening CCC(=O)N1CCN(c2ccc(NC(=O)c3ccc4c(c3)OCCO4)cc2)CC1 returned Yeast UUG start inactive, MLLE-PAM2 inh inactive, PABP FP inh inactive, eIF4H inh inactive and DSG3 Ab inh 76.
Cc1ccc(S(=O)(=O)Nc2ccc3c(c2)C(=O)N([C@H](C)CO)C[C@@H](C)[C@H](CN(C)C(=O)Nc2ccc(F)cc2)O3)cc1 was read as Yeast UUG start inactive.
`CC(C)NC(=O)N[C@@H]1C=C[C@H](CC(=O)NCc2ccc(Oc3ccccc3)cc2)O[C@H]1CO` gave Yeast UUG start inactive.
COc1ccccc1N1CCN(c2cc(=O)n(Cc3ccc(F)cc3)c(=O)[nH]2)CC1 was read as Yeast UUG start inactive, MLLE-PAM2 inh inactive, PABP FP inh inactive, eIF4H inh inactive and DSG3 Ab inh 69.
O=c1cc(N2CCN(c3ccccc3Cl)CC2)[nH]c(=O)n1Cc1ccc(F)cc1 was read as Yeast UUG start inactive, MLLE-PAM2 inh inactive, PABP FP inh inactive, eIF4H inh inactive and DSG3 Ab inh inactive.
